The numbers were not newly measured in patent US20260028374A1, “EPIDERMAL GROWTH FACTOR RECEPTOR INHIBITORS” (FILAMON LTD, priority 2023, published 2026), which cites them from elsewhere.

Series [1] relates to HCT116. Particulars: HCT116, KRAS - G13D; cited from earlier work.
For series [2], the system named is HT29. Particulars: HT29, EGFR - Wild type, high expression BRAF - 600E; cited from earlier work.
In series [3] the test system is SW48G12V. Conditions: Isogeneic Hetrozygous KRAS mutant; cited from earlier work.
Series [4] has as its system RKO. Conditions: EGFR- Wild type, low expression BRAF - 600E; cited from earlier work.
Series [5] relates to SW48. Conditions: SW48, Wild type KRAS/BRAF; cited from earlier work.

Regarding “Cetuximab: anti-EGFR monoclonal antibody”, the Resistance entry is on record as “resistant^b” in series [1]; “resistant^b” in series [2]; “Resistant to” in series [3]; “resistant^c” in series [4]; “Sensitive to” in series [5].
